# AlphaSeq binding of Ab-95 light chain variants to a spike HR2 peptide

Target: peptide PDVDLGDISGINAS, taken from heptad repeat 2 (HR2) of SARS-CoV-2 spike.

The variants keep the heavy chain, the linker and the frameworks of Ab-95 (scFv order VH, a 15-residue (Gly4Ser)3 linker, VL).
VH: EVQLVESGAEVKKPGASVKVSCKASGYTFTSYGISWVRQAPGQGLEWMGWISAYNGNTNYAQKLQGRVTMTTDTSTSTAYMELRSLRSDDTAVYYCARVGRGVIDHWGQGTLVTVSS
VL: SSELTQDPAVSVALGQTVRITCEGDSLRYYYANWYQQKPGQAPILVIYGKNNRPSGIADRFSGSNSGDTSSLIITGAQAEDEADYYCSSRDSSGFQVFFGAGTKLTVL

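The starting antibody came from a phage panning campaign against this peptide. Variants in AAYL52 differ from the parent at up to three CDR positions; double and triple changes were sampled at random. The scFvs were displayed on barcoded MATa yeast, the peptide on MATalpha yeast. After mating in shaken culture at 30 °C for 16 h, diploids were selected and their barcode pairs sequenced. A regression on co-assayed BCL2-family reference pairs converts the normalised counts of each replicate to an apparent Kd. Each pool was mated in three replicate cultures.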

Each variant is given by its three light chain CDRs, as the data file delimits them; those of the parent are EGDSLRYYYAN, GKNNRPS, SSRDSSGFQVF.
Every variant below is changed at S55 of the VL (sequential numbering).
Kd is apparent (estimated from mating counts) and averaged on the log scale over replicates with a signal. Smaller is tighter.
"nd" means that the variant was in the library but no mating with the target was seen in any replicate; the authors take this as a sign of poor binding, and no number exists.

CDR-L1	CDR-L2	CDR-L3	Kd	seen in	signal with controls
EGDSLRPYYAN	GKNNRPY	SSRDSSNFQVF	8.7 µM	1 of 3	2 of 9
EGDILRYYYAN	GKNKRPL	SSRDSSGFQVF	nd	0 of 3	3 of 9
EGDSLRYYDAN	GKNHRPR	SSRDSSGFQVF	53 nM	3 of 3	4 of 9
EGFSLRYYYAN	GKNNRPD	SSRDSLGFQVF	66 nM	3 of 3	7 of 9
EGDSLRYYYAN	GKNNRPF	SERDSSGFQVY	800 nM	3 of 3	1 of 9
EGDSLRYYYAN	GTNNGPN	SSRDSSGFQVF	nd	0 of 3	2 of 9
EGDNLRYYYAN	GKNNRPI	LSRDSSGFQVF	10 µM	2 of 3	1 of 9
EGDSLRYYGAN	GKNNRPI	SSRDSSGFQVF	31 nM	3 of 3	6 of 9
EGDSLRYYYAN	GKNNRMV	SSRDSSGFDVF	3.7 µM	3 of 3	3 of 9
EGDSLRYYYAN	GKNNRPK	SSRDMSGFQVF	360 nM	3 of 3	1 of 9
EGDSLRYYYAN	GKNNRPL	SSRDASGFQVF	410 nM	3 of 3	4 of 9
EGDSVRYYYAY	GKNNRPK	SSRDSSGFQVF	170 nM	3 of 3	4 of 9
MGDSLRYYYAN	GKNNHPK	SSRDSSGFQVF	570 nM	3 of 3	2 of 9
EGDSLRYYYAN	GKNNRYT	SQRDSSGFQVF	20 µM	2 of 3	0 of 9
EGKSLRYGYAN	GKNNRPP	SSRDSSGFQVF	7.8 nM	3 of 3	7 of 9
EGDSLYYYYAN	GKNCRPD	SSRDSSGFQVF	440 nM	2 of 3	1 of 9
EGDLLRYYYAN	GKSNRPD	SSRDSSGFQVF	37 nM	3 of 3	2 of 9
EGDSLRYMYAN	RKNNRPQ	SSRDSSGFQVF	nd	0 of 3	2 of 9
EGDSLRYYYAN	GKQVRPM	SSRDSSGFQVF	620 nM	3 of 3	2 of 9
EGDSLRYYYAN	GKNNRPR	SSRDSIGFTVF	nd	0 of 3	1 of 9
EGVSLRYYYAN	GKNNRPM	SSRDSSGFWVF	93 nM	3 of 3	5 of 9
EGDSLRYYYAN	MKNNRPT	SSRDSSGFQDF	12 µM	1 of 3	1 of 9
KGDSLRYYYAN	GKNNRPV	DSRDSSGFQVF	130 nM	3 of 3	1 of 9
YGDSLRYYWAN	GKNNRPV	SSRDSSGFQVF	980 nM	3 of 3	5 of 9
EKDSLRYYYAN	GNNNRPY	SSRDSSGFQVF	590 nM	3 of 3	0 of 9
EGDSLRYYYAN	GKNNRPQ	SSIDSSGSQVF	170 nM	3 of 3	3 of 9
EKDSLRYYYAN	GKNNRPD	SSRDSSGIQVF	nd	0 of 3	1 of 9
ELDSLRYYYAN	GKNNRPG	LSRDSSGFQVF	16 µM	1 of 3	1 of 9
EGDSLRYYYAN	GKNNRPA	SSRDSKGFQVF	1.6 µM	2 of 3	0 of 9
EGDSLRYYYAN	GKNWRPR	SSRDSSNFQVF	38 µM	1 of 3	4 of 9
EGDSLRPYYAN	GKNNRPC	SSCDSSGFQVF	4.6 µM	2 of 3	4 of 9
EGDSLRYYYAN	GKNLRPQ	SSRDSSGFQVF	140 nM	3 of 3	3 of 9
EGDSLRYYYAR	GKNNVPC	SSRDSSGFQVF	820 µM	1 of 3	2 of 9
VGDSLRYYYAN	GKNNYPV	SSRDSSGFQVF	7.1 µM	2 of 3	6 of 9
EGDSLRYYYGA	GKNNRPM	SSRDSSGFQVF	10 µM	2 of 3	2 of 9
EGDSLRYYYAG	GKNNRTG	SSRDSSGFQVF	440 µM	1 of 3	1 of 9
EGDSLRYYIAN	GKNNRPT	SSRDSGGFQVF	130 µM	2 of 3	4 of 9
EGDSLRYYYAS	GQNNRPI	SSRDSSGFQVF	710 nM	3 of 3	0 of 9
EGDSLRYYYAN	GKNNRPM	TSRDSSGFQVF	370 nM	3 of 3	5 of 9
EGDSLRYYEAN	GKNNRPT	SSSDSSGFQVF	160 nM	3 of 3	6 of 9
EGDSKRYYYAN	GKNNRPQ	SSRDSEGFQVF	47 µM	1 of 3	2 of 9
EYDSLRYYYAN	GKNNRPM	SSRDGSGFQVF	nd	0 of 3	0 of 9
AGDHLRYYYAN	GKNNRPI	SSRDSSGFQVF	340 nM	3 of 3	5 of 9
EGDSLRYYYHN	GLNNRPT	SSRDSSGFQVF	800 nM	1 of 3	2 of 9
EGDSLRYYYAN	GKNNRPV	HHRDSSGFQVF	170 nM	2 of 3	0 of 9
QGDSLRYYYAN	GKNNRPI	SQRDSSGFQVF	330 nM	3 of 3	2 of 9
EGDSLRYYYAN	GWNNRCK	SSRDSSGFQVF	13 µM	1 of 3	4 of 9
EGESLRYYYAN	GKNNRPP	SSRDSSGFQEF	1.1 µM	3 of 3	6 of 9
EGDSLRYYYAN	GKNNRPL	SSRFSSGFTVF	400 nM	3 of 3	4 of 9

Parent in this assay: reference entry 200 nM, copy in this library 180 nM.
Nonspecific signal, from three strains lacking the peptide, appeared in 28% of pairings of library AAYL52, centred on 8.2 µM (5% of these signals below 800 nM); values are not corrected for it. For each scFv, signals with the empty controls are counted beside the result.

Values reported by Engelhart et al. 2022, doi:10.1038/s41597-022-01779-4 (FLAb copy).